# scFv variants of Ab-14 (heavy chain) against a SARS-CoV-2 spike peptide

The target is the same throughout: PDVDLGDISGINAS, from the HR2 region of SARS-CoV-2 spike.

Parent scFv Ab-14: VH joined to VL by three GGGGS repeats. Changes lie in the heavy chain CDRs alone.
VH: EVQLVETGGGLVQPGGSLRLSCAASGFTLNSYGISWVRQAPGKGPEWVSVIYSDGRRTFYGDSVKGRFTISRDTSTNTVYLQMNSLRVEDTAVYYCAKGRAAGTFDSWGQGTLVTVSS
VL: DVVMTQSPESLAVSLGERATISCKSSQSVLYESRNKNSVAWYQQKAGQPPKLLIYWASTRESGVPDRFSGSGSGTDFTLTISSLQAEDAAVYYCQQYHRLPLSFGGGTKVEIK

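The starting antibody came from a phage panning campaign against this peptide. Library AAYL49 holds single substitutions and randomly drawn double and triple substitutions in the CDRs. The scFvs were displayed on barcoded MATa yeast, the peptide on MATalpha yeast. After mating in shaken culture at 30 °C for 16 h, diploids were selected and their barcode pairs sequenced. Each replicate has its own calibration line, from reference interactions of the BCL2 family. Each pool was mated in three replicate cultures.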

Each variant is given by its three heavy chain CDRs, as the data file delimits them; those of the parent are GFTLNSYGIS, VIYSDGRRTFYGDSVK, GRAAGTFDS. This list gathers variants with a substitution at V50 (VH, numbered from residue 1). Each Kd is an estimate from the mating assay, the geometric mean of the replicates in which the pair was seen; lower is stronger. "no signal" marks a missing value. The strain was present, yet no cells mated with the target were sequenced in any replicate, which points to weak or no binding. Background: pairings of library AAYL49 with three empty control strains gave a value in 15% of cases (median 11 µM, 5th percentile 680 nM). Values in that range, when seen in few replicates, are hard to tell from nonspecific mating.

CDR-H1	CDR-H2	CDR-H3	apparent Kd	replicates with signal
GFTLCSYGIS	DIYSDGRRTFYGDSVK	GRADGTFDS	110 µM	3 of 3
GFTLNSYGIS	SIYSDGRRTFYGDSPH	GRAAGTFDS	13 µM	2 of 3
GFTLNSYGIS	DIYSDGRRTDYGDSVK	GRAAGTFDS	no signal	0 of 3
GFTLNSYGIS	LIYSDGRRTFGGRSVK	GRAAGTFDS	no signal	0 of 3
GFTLNSYGIS	EIYSDGRRTFLGDSVK	GRNAGTFDS	430 µM	1 of 3
GFTLNSYGIS	HIYSDTRRTFYGDSVW	GRAAGTFDS	62 µM	1 of 3
GCTLNSYGIS	SIYSDGRRTFYSDSVK	GRAAGTFDS	no signal	0 of 3
GFTLNSYGKS	TIYSDGRTTFYGDSVK	GRAAGTFDS	no signal	0 of 3
GFTLQSYGIS	YIYSDMRRTFYGDSVK	GRAAGTFDS	31 µM	1 of 3
GFTLNSYGIS	PIYSDSRRTFYGDSVK	KRAAGTFDS	85 µM	3 of 3
GFTLNSYGIS	YIYSDGRRTFYGDSVK	GRAAGTFDS	44 µM	2 of 3
GFPLNSYGIS	RIYSDGSRTFYGDSVK	GRAAGTFDS	no signal	0 of 3
GFTLNSYGIS	DIYSCGRRTFYGDSVK	GRAAGTPDS	no signal	0 of 3
GFTLNSYGIS	RIYSDGGRTFYGDQVK	GRAAGTFDS	no signal	0 of 3
GFTLNSYGIS	YSYSDGRRSFYGDSVK	GRAAGTFDS	no signal	0 of 3
GFTLNSYGIS	YIYSDGRATFYGDSVK	GRAAGTCDS	no signal	0 of 3
GFTLNSYGIS	RIYSDIRRTFYGDSVK	GRWAGTFDS	no signal	0 of 3
GFTLCSYGIS	NIYNDGRRTFYGDSVK	GRAAGTFDS	5.4 µM	1 of 3
GFTLNSYGIS	KIYHDGRRTFYGMSVK	GRAAGTFDS	no signal	0 of 3
GFTLNSYGIS	RICSDGRRTFYGDSVK	GRAAGTFWS	3.8 µM	3 of 3
GFTLNSYGIS	PIYWDGRRTFYGDSVK	GRAAGTDDS	no signal	0 of 3
GFTLNSYGIS	PYYSDGRRTFYGDSVK	WRAAGTFDS	no signal	0 of 3
GATLNSYGIS	MIYSDGFRTFYGDSVK	GRAAGTFDS	1.5 µM	1 of 3
GFTENSYGIS	YIYSDGRRTFYGDPVK	GRAAGTFDS	27 µM	1 of 3

Top 3 of the variants detected in all replicates, tightest first:

| CDR-H1 | CDR-H2 | CDR-H3 | apparent Kd | replicates with signal |
|---|---|---|---|---|
| GFTLNSYGIS | RICSDGRRTFYGDSVK | GRAAGTFWS | 3.8 µM | 3 of 3 |
| GFTLNSYGIS | PIYSDSRRTFYGDSVK | KRAAGTFDS | 85 µM | 3 of 3 |
| GFTLCSYGIS | DIYSDGRRTFYGDSVK | GRADGTFDS | 110 µM | 3 of 3 |

Reference: Engelhart et al. 2022, doi:10.1038/s41597-022-01779-4. File: FLAb, binding data.